Measurements published in publication PMC2809336, “Antidepressant Interactions with the NMDA NR1-1b Subunit” (Journal of Biophysics, 2008).

Biological target: T1, NMDA NR1-1b S1S2 domain (Rattus norvegicus, UniProt P35439)
T1 construct: (His)8-TSG-LVPRG(thrombin cut site)-S1(394-544)-GT-S2(663-800); (His)8-TSG-LVPRG (His8 tag with thrombin cut site) (N); made in house; host or cells: E. coli Origami B(DE3)
Assay: Extrinsic ANS fluorescence
Type: binding
Conditions: ANS 1 : 1 with 5.29 μM NR1-1b S1S2, excitation 380 nm; drug concentrations as in Figure 4
Protocol: Extrinsic fluorescence studies were performed in a Cary Ec-lipse fluorometer at 25°C. All emission scans were acquired from 400 to 600 nm after excitation at 380 nm with 20 nm slit widths for emission and excitation in a 10 mm-path-length cell. Before data acquisition, samples were incubated for thirty seconds in the sample holder at 25°C. Blanks were collected both for the antidepressants and the NR1-1b S1S2 domain. Three emission spectra of identicallyprepared samples were averaged for each plot. 8-Anilino-1-naphthalenesulfonic acid (ANS, TCI America), in a 1 : 1 molar ratio, was added to 5.29 μM of the NR1-1b S1S2 domain premixed with antidepressant (at final concentrations as above for intrinsic quenching studies in addition to the SSRIs fluoxetine (8.62 μM) and fluvoxamine (2.81 mM) and the SNRI venlafaxine (29.07 μM)). As with all intrinsic assays, total methanol concentration was kept at 1.8%. Plots of intensity versus wavelength were constructed from averaged emission spectra.

CNCCCN1c2ccccc2CCc2ccccc21 [desipramine]
ANS emission spectrum of the NR1-1b S1S2 complex versus ANS bound to apo S1S2 (binding): significantly different
